According to patent publication US12357701B2, “Anti-HER2 biparatopic antibody-drug conjugates and methods of use” (Zymeworks BC Inc., priority 2018, dated 2025):
Where “and” joins values, the source holds several entries; their conditions need not be identical. Identical values can stand only once.

Assay: GLP toxicity study of v21252
Type: in vivo, cynomolgus monkeys

In the case of `CCC(C)[C@@H]([C@@H](CC(=O)N1CCC[C@H]1[C@H](OC)[C@@H](C)C(=O)NS(=O)(=O)c1ccc(N)cc1)OC)N(C)C(=O)[C@@H](NC(=O)[C@H](C(C)C)N(C)C)C(C)C` (stereo in doubt) [Compound 9, (S)—N-((3R,4S,5R)-1-((S)-2-((1R,2R)-3-((4-aminophenyl)sulfonamido)-1-methoxy-2-methyl-3-oxopropyl)pyrrolidin-1-yl)-3-methoxy-5-methyl-1-oxoheptan-4-yl)-2-((S)-2-(dimethylamino)-3-methylbutanamido)-N,3-dimethylbutanamide], the “toxin (Compound 9) serum concentration” value (one female, v21252 12 mg/kg, Day 43, 72 hr post dose) is reported as 0.513 ng/mL, the “toxin (Compound 9) serum concentration” value (one male, v21252 18 mg/kg, Day 29, 1 hr following SOI) is reported as 0.532 ng/mL and the “toxin (Compound 9) serum concentration” value (two males and two females, respectively, v21252 18 mg/kg, Day 43, 24 hr following SOI) is reported as 0.555 ng/mL and 0.505 ng/mL and 0.556 ng/mL and 0.653 ng/mL.
